Experimental data published in paper PMC8511083 (European journal of medicinal chemistry, 2021).

How the values were obtained:
[1] = test system: OVCAR8 orthotopic ovarian tumors; assay: Orthotopic OVCAR8 ovarian cancer mouse model; assay type: in vivo; details: ex vivo, endpoint, vs vehicle
[2] = test system: panel of melanoma and breast cancer cell lines; assay: Average growth inhibition in panel of melanoma and breast cancer cell lines; assay type: cell-based; details: Homo sapiens, read-out: Average IC50
OVCAR3 and OVCAR8 cells = assay: Average growth inhibition in ovarian cancer cell lines; assay type: cell-based; details: Homo sapiens, read-out: Average IC50

Oc1c(CN2CCCCC2)cc(Cn2ncc(-c3ccc(C(F)(F)F)cc3)n2)c2cccnc12 [Compound 12b, 7-(piperidin-1-ylmethyl)-5-((4-(4-(trifluoromethyl)phenyl)-2H-1,2,3-triazol-2-yl)methyl)quinolin-8-ol]
luciferase activity (photon flux) of the excised ovaries [1]: remarkable decrease in luciferase activity | IC50 [2]: 1700 nM | IC50 (OVCAR3 and OVCAR8 cells): 1100 nM
